Binding of CDR-mutated scFvs to a peptide of the spike HR2 region

Values reported by Engelhart et al. 2022, doi:10.1038/s41597-022-01779-4 (FLAb copy).

Antigen: PDVDLGDISGINAS, a 14-residue peptide of the SARS-CoV-2 spike HR2 region.

Parent: Ab-14, a human scFv built as VH, three GGGGS repeats, VL. Only the CDRs of the heavy chain vary.
VH: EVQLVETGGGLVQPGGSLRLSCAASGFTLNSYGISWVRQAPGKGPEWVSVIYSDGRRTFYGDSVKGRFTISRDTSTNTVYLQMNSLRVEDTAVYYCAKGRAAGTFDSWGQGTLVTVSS
VL: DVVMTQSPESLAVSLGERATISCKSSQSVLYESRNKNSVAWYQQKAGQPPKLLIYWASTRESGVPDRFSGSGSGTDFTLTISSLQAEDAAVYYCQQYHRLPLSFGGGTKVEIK

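The parent was found by panning a naive human phage display library on the peptide. The library (AAYL49) carries one to three amino acid substitutions per variant, with no insertions or deletions. The scFvs were displayed on barcoded MATa yeast, the peptide on MATalpha yeast. Binding brings cells together so that they mate, and sequencing counts the barcode pairs among the diploids. A regression on co-assayed BCL2-family reference pairs converts the normalised counts of each replicate to an apparent Kd. Each pool was mated in three replicate cultures.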

Each variant's VH is given in full. Affinities are written as log10 Kd with Kd in nM; a lower number is a better binder. The mean shown is taken over the replicates in which the pair was detected. "n.d." marks a missing value. The strain was present, yet no cells mated with the target were sequenced in that replicate, which points to weak or no binding. As a blank, each scFv also met three strains without target: over library AAYL49, 15% of these pairings were detected, typically at 4.06 and seldom below 2.83. For each scFv, signals with the empty controls are counted beside the result, with their mean in brackets.

{"VH": "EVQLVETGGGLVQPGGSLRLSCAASGFTLNSYGISWVRQAPGKGPEWVSVIYSDGRGTYKGDSVKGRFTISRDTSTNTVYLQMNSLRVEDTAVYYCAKGRAAGTFDSWGQGTLVTVSS", "log10 Kd, replicates": "n.d. / n.d. / 4.81", "mean log10 Kd (nM)": "4.81", "control signals": "2/9 (3.89)"}
{"VH": "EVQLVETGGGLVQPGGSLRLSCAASGFTLNSYGISWVRQAPGKGPEWVSVPYWDGRPTFYGDSVKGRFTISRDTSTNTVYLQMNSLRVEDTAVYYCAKGRAAGTFDSWGQGTLVTVSS", "log10 Kd, replicates": "n.d. / n.d. / n.d.", "mean log10 Kd (nM)": "n.d.", "control signals": "3/9 (3.91)"}
{"VH": "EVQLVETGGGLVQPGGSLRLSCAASGFTLNSYGISWVRQAPGKGPEWVSVIYSDARRTFYGDSVKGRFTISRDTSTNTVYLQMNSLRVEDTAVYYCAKVRNAGTFDSWGQGTLVTVSS", "log10 Kd, replicates": "n.d. / 5.04 / n.d.", "mean log10 Kd (nM)": "5.04", "control signals": "0/9"}
{"VH": "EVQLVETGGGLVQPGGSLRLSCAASGFTLNSYGISWVRQAPGKGPEWVSVIYSDGRFTFYGSSVKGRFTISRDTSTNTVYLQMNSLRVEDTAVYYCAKGRAAGTFDTWGQGTLVTVSS", "log10 Kd, replicates": "4.03 / n.d. / n.d.", "mean log10 Kd (nM)": "4.03", "control signals": "0/9"}
{"VH": "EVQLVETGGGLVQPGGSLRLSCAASGFTLNAYPISWVRQAPGKGPEWVSVIYSDGRRTFYGDSVKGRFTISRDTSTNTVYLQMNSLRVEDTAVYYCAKGRAAGTFFSWGQGTLVTVSS", "log10 Kd, replicates": "n.d. / n.d. / n.d.", "mean log10 Kd (nM)": "n.d.", "control signals": "0/9"}
{"VH": "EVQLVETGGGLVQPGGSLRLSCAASEFTYNSYGISWVRQAPGKGPEWVSVIYSGGRRTFYGDSVKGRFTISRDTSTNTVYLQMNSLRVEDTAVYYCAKGRAAGTFDSWGQGTLVTVSS", "log10 Kd, replicates": "3.93 / n.d. / n.d.", "mean log10 Kd (nM)": "3.93", "control signals": "1/9 (3.55)"}
{"VH": "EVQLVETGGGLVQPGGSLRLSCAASGHCLNSYGISWVRQAPGKGPEWVSVIYSDGRRTFYGDSVKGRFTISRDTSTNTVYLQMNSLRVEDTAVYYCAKGRAAGTFDDWGQGTLVTVSS", "log10 Kd, replicates": "4.11 / 4.71 / 5.24", "mean log10 Kd (nM)": "4.69", "control signals": "7/9 (4.51)"}
{"VH": "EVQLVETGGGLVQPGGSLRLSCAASGFTLNSYGISWVRQAPGKGPEWVSVIYSDGRRTFYGDSVKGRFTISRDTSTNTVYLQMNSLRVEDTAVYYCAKGRAASTFDQWGQGTLVTVSS", "log10 Kd, replicates": "2.52 / 2.03 / 2.31", "mean log10 Kd (nM)": "2.29", "control signals": "3/9 (4.84)"}
{"VH": "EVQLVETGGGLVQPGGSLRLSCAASGFTLNSYCISWVRQAPGKGPEWVSVIYSDGRRTFYGDSVKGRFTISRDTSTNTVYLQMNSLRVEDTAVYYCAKGRAYGTFKSWGQGTLVTVSS", "log10 Kd, replicates": "n.d. / n.d. / n.d.", "mean log10 Kd (nM)": "n.d.", "control signals": "1/9 (4.21)"}
{"VH": "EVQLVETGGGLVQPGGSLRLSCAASGFTLNTYGISWVRQAPGKGPEWVSVIYSDGRRTFYTISVKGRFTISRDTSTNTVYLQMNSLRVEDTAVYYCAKGRAAGTFDSWGQGTLVTVSS", "log10 Kd, replicates": "5.05 / 5.30 / n.d.", "mean log10 Kd (nM)": "5.17", "control signals": "1/9 (4.50)"}
{"VH": "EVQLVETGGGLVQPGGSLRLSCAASDFTLNSYGISWVRQAPGKGPEWVSVKYSDGRRTFYGDSSKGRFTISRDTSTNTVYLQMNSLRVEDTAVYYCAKGRAAGTFDSWGQGTLVTVSS", "log10 Kd, replicates": "n.d. / n.d. / n.d.", "mean log10 Kd (nM)": "n.d.", "control signals": "0/9"}
{"VH": "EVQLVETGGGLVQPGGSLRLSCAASFFTLGSYGISWVRQAPGKGPEWVSVIYSDGRRTFYGDSVKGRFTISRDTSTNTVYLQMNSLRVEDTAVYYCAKGRAAGTFDQWGQGTLVTVSS", "log10 Kd, replicates": "n.d. / n.d. / n.d.", "mean log10 Kd (nM)": "n.d.", "control signals": "0/9"}
{"VH": "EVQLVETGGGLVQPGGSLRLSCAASGFTLNSYGNDWVRQAPGKGPEWVSVIYSDGRRTFYGDSVKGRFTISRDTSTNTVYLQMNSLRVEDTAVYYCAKGRAVGTFDSWGQGTLVTVSS", "log10 Kd, replicates": "n.d. / n.d. / n.d.", "mean log10 Kd (nM)": "n.d.", "control signals": "0/9"}
{"VH": "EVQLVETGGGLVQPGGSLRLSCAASGFTLNSYEISWVRQAPGKGPEWVSVIYSDGHRTKYGDSVKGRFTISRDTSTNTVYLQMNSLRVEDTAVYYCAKGRAAGTFDSWGQGTLVTVSS", "log10 Kd, replicates": "n.d. / 3.44 / n.d.", "mean log10 Kd (nM)": "3.44", "control signals": "4/9 (4.27)"}
{"VH": "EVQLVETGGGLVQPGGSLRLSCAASGDTLNSYGISWVRQAPGKGPEWVSVIYLDGRRTFYGDSVRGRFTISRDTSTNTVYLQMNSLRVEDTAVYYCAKGRAAGTFDSWGQGTLVTVSS", "log10 Kd, replicates": "3.67 / 2.78 / 3.27", "mean log10 Kd (nM)": "3.24", "control signals": "1/9 (4.43)"}
{"VH": "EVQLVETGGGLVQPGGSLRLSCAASGFTLKSYGIVWVRQAPGKGPEWVSVIYSDGRRTFYGDSVKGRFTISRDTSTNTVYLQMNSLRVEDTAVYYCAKGRAAGTFDSWGQGTLVTVSS", "log10 Kd, replicates": "n.d. / n.d. / n.d.", "mean log10 Kd (nM)": "n.d.", "control signals": "0/9"}
{"VH": "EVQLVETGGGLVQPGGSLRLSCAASGFTLNSYGISWVRQAPGKGPEWVSPIYSDGRRTFYGDVVKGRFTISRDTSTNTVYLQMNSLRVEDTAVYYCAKGMAAGTFDSWGQGTLVTVSS", "log10 Kd, replicates": "n.d. / n.d. / n.d.", "mean log10 Kd (nM)": "n.d.", "control signals": "0/9"}
{"VH": "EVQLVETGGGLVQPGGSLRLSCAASGTTLNSYWISWVRQAPGKGPEWVSVIYSDGRRTFYGDSVKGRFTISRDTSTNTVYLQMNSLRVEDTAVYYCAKGFAAGTFDSWGQGTLVTVSS", "log10 Kd, replicates": "n.d. / 5.40 / 3.54", "mean log10 Kd (nM)": "4.47", "control signals": "3/9 (4.03)"}
{"VH": "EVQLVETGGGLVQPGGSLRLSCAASGFTLNSYGISWVRQAPGKGPEWVSVIYHDGRRTFYGDSVQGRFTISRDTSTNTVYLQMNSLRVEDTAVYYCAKGRAAGRFDSWGQGTLVTVSS", "log10 Kd, replicates": "n.d. / n.d. / n.d.", "mean log10 Kd (nM)": "n.d.", "control signals": "0/9"}
{"VH": "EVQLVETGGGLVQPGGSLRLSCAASGFTLNSYGIGWVRQAPGKGPEWVSVIYSDFRRTFYGDSVKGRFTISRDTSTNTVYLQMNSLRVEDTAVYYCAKGRAAGTFDSWGQGTLVTVSS", "log10 Kd, replicates": "3.75 / 4.88 / n.d.", "mean log10 Kd (nM)": "4.31", "control signals": "0/9"}
{"VH": "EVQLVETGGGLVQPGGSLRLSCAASGFTRNSYGWSWVRQAPGKGPEWVSVIYSDGRRTFYGDSVKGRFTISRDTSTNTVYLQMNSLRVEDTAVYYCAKGRAAGTFDAWGQGTLVTVSS", "log10 Kd, replicates": "n.d. / n.d. / n.d.", "mean log10 Kd (nM)": "n.d.", "control signals": "1/9 (4.40)"}

Top 2 of the variants detected in all replicates, tightest first:

| VH | log10 Kd, replicates | mean log10 Kd (nM) | control signals |
|---|---|---|---|
| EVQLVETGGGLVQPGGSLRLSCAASGFTLNSYGISWVRQAPGKGPEWVSVIYSDGRRTFYGDSVKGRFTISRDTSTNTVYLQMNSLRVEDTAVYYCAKGRAASTFDQWGQGTLVTVSS | 2.52 / 2.03 / 2.31 | 2.29 | 3/9 (4.84) |
| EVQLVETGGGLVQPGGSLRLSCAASGDTLNSYGISWVRQAPGKGPEWVSVIYLDGRRTFYGDSVRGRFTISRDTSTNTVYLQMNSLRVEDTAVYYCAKGRAAGTFDSWGQGTLVTVSS | 3.67 / 2.78 / 3.27 | 3.24 | 1/9 (4.43) |